Measured values: patent publication US5422350A, “Nitrogen substituted acridine and cytochrome P450 inhibitors and methods of use” (priority 1992, dated 1995)

What was measured:
[1] = tested on: rat hepatocytes; assay: Irreversible binding of tacrine-derived radioactivity to rat hepatocytes with chloroquine; format: in vitro ADME; settings: for tacrine-equivalents bound per mg hepatic protein: Tacrine + Chloroquine (100 μM)
Source text: D. J. Back, H. S. Purba, C. Staiger, M. L. Orme, A. M. Breckenridge, "Inhibition of Drug Metabolism by the Anti Malarial Drugs Chloroquine and Primaquine in the Rat", BIOCHEM. PHARMACOL., Vol. 32, pp. 257-264 (1983). Ethoxyresorufin O-deethylation is selectively catalyzed by P450 1A2. C. Gleizes, C. Eeckhoutte, T. Pineau, M. Alvinerie, and P. Galtier, "Inducing Effect of Oxfendazole on Cytochrome P4501A2 in Rabbit Liver", BIOCHEM. PHARMACOL. VOL. 41, pp. 1813-1820 (1991).

[2] = tested on: P450 2D6; assay: Tacrine as substrate of P450 2D6: co-incubation with quinidine in human liver microsomes; format: in vitro ADME; settings: for 1-Hydroxytacrine / Tacrine: quinidine +
Source text: U. A. Meyer, J. Gut, T. Kronbach, C. Skoda, U. T. Meier, and T. Catin, "The Molecular Mechanisms of Two Common Polymorphisms of Drug Oxidation-Evidence for Functional Changes in Cytochrome P-450 Isozymes Catalysing Bufuralol and Mephenytoin Oxidation", XENOBIOTICA, Vol 16, pp 449-464 (1986). […] K. Brosen and L. F. Gram, "Quinidine Inhibits the 2-Hydroxylation of Imipramine and Desipramine but not the Demethylation of Imipramine", EUR J CLIN. PHARMACOL., Vol 37, pp 155-160 (1989).

CCN(CC)CCCC(C)Nc1ccnc2cc(Cl)ccc12 (stereo not shown) [Chloroquine, 7-chloro-4-(4-diethylamino-1-methylbutylamino)quinoline]
inhibition of tacrine irreversible binding as well as metabolism ([1]; 14C-tacrine 5 μM, chloroquine 100 μM): inhibition of tacrine irreversible binding as well as metabolism
tacrine-equivalents bound per mg hepatic protein ([1]; 5 min): 0.005 nmol
tacrine-equivalents bound per mg hepatic protein ([1]; 15 min): 0.012 nmol
tacrine-equivalents bound per mg hepatic protein ([1]; 30 min): 0.016 nmol
tacrine-equivalents bound per mg hepatic protein ([1]; 60 min): 0.034 nmol
tacrine-equivalents bound per mg hepatic protein ([1]; 90 min): 0.039 nmol
tacrine-equivalents bound per mg hepatic protein ([1]; 120 min): 0.041 nmol
tacrine-equivalents bound per mg hepatic protein ([1]; 180 min): 0.046 nmol

C=C[C@H]1C[N@@]2CC[C@H]1C[C@@H]2[C@@H](O)c1ccnc2ccc(OC)cc12 [Quinidine]
1-Hydroxytacrine ([2]; 0 min): 0 nMoles per 3 mL incubate
Tacrine ([2]; 0 min): 2.02 nMoles per 3 mL incubate
1-Hydroxytacrine ([2]; 5 min): 0.383 nMoles per 3 mL incubate
Tacrine ([2]; 5 min): 1.22 nMoles per 3 mL incubate
1-Hydroxytacrine ([2]; 10 min): 0.606 nMoles per 3 mL incubate
Tacrine ([2]; 10 min): 0.816 nMoles per 3 mL incubate
1-Hydroxytacrine ([2]; 20 min): 1.067 nMoles per 3 mL incubate
Tacrine ([2]; 20 min): 0.401 nMoles per 3 mL incubate
1-Hydroxytacrine ([2]; 40 min): 1.192 nMoles per 3 mL incubate
Tacrine ([2]; 40 min): 0.037 nMoles per 3 mL incubate
1-Hydroxytacrine ([2]; 60 min): 1.209 nMoles per 3 mL incubate
Tacrine ([2]; 60 min): 0.033 nMoles per 3 mL incubate
effect on irreversible binding of tacrine to human hepatic microsomal proteins ([2]; co-incubation): not effected
effect on conversion of tacrine to 1-hydroxytacrine ([2]; human liver microsomes): did not inhibit
